This note sets out measurements from ChEMBL document CHEMBL1133694, “Hydroxamic acid derivatives as potent peptide deformylase inhibitors and antibacterial agents” (J Med Chem, 2000).

The structures appear in SMILES notation.

In this assay the target is T1, Peptide deformylase (Escherichia coli, UniProt Q9JN24).
T1 sequence (Q9JN24 whole entry): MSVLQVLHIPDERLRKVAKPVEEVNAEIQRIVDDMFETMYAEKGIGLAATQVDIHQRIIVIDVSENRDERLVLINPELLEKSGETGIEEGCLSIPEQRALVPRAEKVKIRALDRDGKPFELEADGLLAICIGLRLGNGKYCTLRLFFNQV
Description: Inhibitory activity against isolated Escherichia coli peptidyl deformylase (PDF) enzyme containing iron.
By IC50 is commonly meant the concentration that gives 50% inhibition. Lower therefore signals greater potency. `CC(CC(=O)NO)S(=O)(=O)c1ccccc1` (centres undefined) came in with a concentration for half-maximal inhibition (IC50) of 22000 nM.
To `CCCCC(CC(=O)NO)S(=O)(=O)c1ccc(Br)cc1` (centres undefined) belongs 120 nM.
To `CCCCC(CC(=O)NO)S(=O)(=O)C1CCCCC1` (centres undefined) belongs 230 nM; to `O=C(CC(c1ccc2c(c1)OCO2)S(=O)(=O)c1ccccc1)NO` (centres undefined), 1100 nM.
